Values quoted from earlier work as cited in US11420922B2, “Hydroxylated tropolone inhibitors of nucleotidyl transferases in herpesvirus and Hepatitis B and uses therefor” (Saint Louis University, priority 2015, dated 2022).

Test system: HBV
Settings: human, in vivo; cited from earlier work

Substance: Interferon α: FDA approved drug to treat chronic HBV
- patients with sustained clinical improvement: 20-30%
